Laboratory results from patent US20060286006A1, “Method and apparatus for the treatment of fluid waste streams” (published 2006).

What was measured:
[1] = tested on: coated bioactive support component (cell powder of cells expressing a mutant opd gene in latex acrylic paint); assay: treatment of Paraoxon contaminated water in reactive column with bioactive coated support component; settings: single pass through the column
[2] = molecular target: Wild-Type OPH binding Co^2+ (Brevundimonas diminuta, UniProt P0A434); settings: Co^2+ substituted OPH; cited from earlier work

For `CCOP(=O)(OCC)Oc1ccc([N+](=O)[O-])cc1`, the “Paraoxon present in the fluid converted to para-nitrophenol” value [1] is listed as 90% and the kcat [2] is listed as 15000^a s^−1.
